Test results published in patent US10500165B2, “Purified therapeutic nanoparticles and preparation methods thereof” (CSPC ZHONGQI PHARMACEUTICAL TECHNOLOGY (SHIJIAZHUANG) CO., …, priority 2014, dated 2019).

Test: Albumin polymer content (HPLC)
Format: physicochemical
Details: for Monomer (%): share of albumin monomer; for Polymer (%): share of albumin polymer
Method: The content of human serum albumin was determined by HPLC. The human serum albumin was determined at a wavelength of 228 nm in an HPLC equipped with a Tosohaas TSK G3000 SWXL gel column and a UV-detector (1260VWD G1314B, Agilent technologies), with a mobile phase of 0.1 mol/L dipotassium hydrogen phosphate solution and an injection volume of 10 μl. The albumin content was calculated using the external standard method.
As a commercially available pharmaceutical product, human serum albumin should contain no more than 5% of the polymer according to its quality standard, since the albumin polymer may induce allergic reaction. The determination method for albumin in Example 10 can distinguish albumin monomer from the polymer. The albumin polymer and paclitaxel content were detected in the compositions from Example 1-9 (referred as initial formulation) and the compositions obtained from Method 1 of Example 24, respectively using mannitol and human serum albumin as a lyoprotectant (corresponding to Example 1-9), based on the determination method for albumin and paclitaxel in Example 10, and the albumin polymer content was calculated per 1 mg paclitaxel.
The amount of polymer in an albumin solution was increased by dialysis using a regenerated cellulose ultrafiltration membrane (PXC100C50, Millipore) with the cut-off molecular weight of 100K. The ratio of albumin polymer was detected using the method in Example 10, and the content of albumin was determined by Kjeldahl method to avoid the deviation produced by the different responses to potential polymers of HPLC method.

Substance | Monomer (%) | Polymer (%)
Poly-HSA: albumin solution enriched in polymer by dialysis with a 100K ultrafiltration membrane | 25.1 | 74.9
human serum albumin [HSA] | 95.8 | 4.2
